BindingDB's records for doi:10.1021/jm00087a004 (Harvard Medical School, 1992)

By UniProt entry, the sequences of proteins in these tests, tags left out.
UniProt P41143, whole entry: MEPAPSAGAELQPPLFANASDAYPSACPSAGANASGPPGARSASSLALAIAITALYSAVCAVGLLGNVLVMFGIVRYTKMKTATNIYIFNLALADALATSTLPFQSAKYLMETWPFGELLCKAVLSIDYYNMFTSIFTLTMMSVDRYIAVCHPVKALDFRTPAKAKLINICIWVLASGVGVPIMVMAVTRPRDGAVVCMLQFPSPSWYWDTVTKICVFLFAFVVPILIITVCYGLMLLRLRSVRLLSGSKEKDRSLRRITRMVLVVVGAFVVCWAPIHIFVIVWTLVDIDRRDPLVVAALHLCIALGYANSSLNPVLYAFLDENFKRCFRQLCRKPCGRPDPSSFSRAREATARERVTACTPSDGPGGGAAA

Molecular target: Delta-type opioid receptor (Homo sapiens, UniProt P41143)
Test: Binding affinity towards Opioid receptor delta 1
How it was run: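 Calf frontal cortex membranes with [3H]DPDPE 1 nM. Samples filtered over glass fiber after incubation. Nonspecific binding taken with levallorphan. Triplicates, experiment repeated three times. Ki = IC50/(1+[radioligand]/KD). Mean ± SEM.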

C[C@@H]1C2CCCC1(c1cccc(O)c1)CCN2C (stereo partly specified)
Ki: > 500 nM
